Each structure is given as a SMILES string. Only a part is listed here, and it is no random draw. Results filed as inconclusive are left out. The source made the active and inactive calls. Calls come from the whole dose curve; as a rule, active = well fitted curve in the direction sought with a large enough effect; inconclusive = small, poorly fitted or top-dose-only effect, or another doubt; inactive = no such curve, though single readings can be large; an effect the other way counts as inactive or inconclusive.

By UniProt entry, the sequences of proteins in these tests, tags left out.
UniProt P04637, whole entry: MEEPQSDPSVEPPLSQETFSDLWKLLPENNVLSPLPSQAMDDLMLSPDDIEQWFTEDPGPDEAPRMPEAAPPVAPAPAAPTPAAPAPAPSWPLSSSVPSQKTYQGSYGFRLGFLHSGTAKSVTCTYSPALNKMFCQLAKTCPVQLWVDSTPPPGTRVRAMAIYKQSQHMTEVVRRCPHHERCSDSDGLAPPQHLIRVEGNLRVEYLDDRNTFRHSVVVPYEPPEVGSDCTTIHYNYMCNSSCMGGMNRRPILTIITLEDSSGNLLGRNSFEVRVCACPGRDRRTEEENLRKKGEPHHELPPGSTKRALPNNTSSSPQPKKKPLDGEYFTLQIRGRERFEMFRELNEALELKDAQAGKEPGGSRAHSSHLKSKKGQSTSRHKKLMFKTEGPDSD

Assay [1] has as its target Cellular tumor antigen p53 (Homo sapiens) (UniProt P04637). The experiment in a line: Primary qHTS for small molecule compounds that upregulate eGFP-tagged delta133p53alpha (in N-terminal) cells. (AID 2060322).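 Note: cells pre-induced with doxycycline then dosed without doxycycline; series mostly up to about 56 µM; 0% = DMSO vehicle and 100% = reference activator; nearly all actives have a fitted effect of over 75% in size.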 The following applies: NCI-H358 eGFP-delta133p53alpha fluorescence, 24 h; stronger effect = higher value. (Quantitative high-throughput screening tests each substance at several concentrations.)

Assay [2] is described as follows: BET inhibitor-based combinations targeting novel dependencies in MECOM-rearranged (r) AML: OCI-AML3 cell line (AID 2202232). Note: potency is the fitted concentration of half-maximal effect; nearly all actives have a fitted effect of over 35% in size. The following applies: OCI-AML3 viability, CellTiter-Glo luminescence, 48 h. The text has this:
(§1) Ecotropic viral insertion site 1 (EVI1) is located on chromosome 3q26.2 as part of the MECOM (MDS and EVI1 complex) locus. Under normal hematopoiesis, EVI1 is a regulator of hematopoietic stem cell maintenance and self-renewal and EVI1 levels decrease as the cells differentiate. In approximately 5-10% of de novo acute myeloid leukemia (AML) EVI1 is aberrantly expressed, including Chromosomal inv(3)(q21;q26.2) or t(3;3)(q21;q26.2) alterations (MECOM-r) that account for about 50% of AML with EVI1 overexpression 31. AMLs with high levels of EVI1 have a poor prognosis and an overall survival time averaging between 10-14 months. EVI1 overexpression confers resistance in leukemia cells, highlighting the need to develop new targeted therapies for EVI1 overexpressing AMLs. […]
(§2) A collection of 2480 mechanistically annotated dugs (MIPE v5.0) was used to screen four 3q26.2 rearranged AML cell lines and three non-3q26.2 rearranged AML cell lines. […] Cell viability was determined by luminescence based, Cell Titer Glo assay (Promega). […] Luminescence readings were taken using a Viewlux (PerkinElmer) with a 2 s exposure time per plate. […] Quantitative drug activity data from dose-response curves was determined utilizing area Under the Curve (AUC) and Z-transformed AUC (Z-AUC, a mean-centering transformation applied to each individual cell-line screened).
(In general: Cellular ATP, detected with luciferase, serves as a proxy for viable cell number.)

Assay [3] is described as follows: BET inhibitor-based combinations targeting novel dependencies in MECOM-rearranged (r) AML: MV-4-11 cell line (AID 2202233). Note: potency is the fitted concentration of half-maximal effect; nearly all actives have a fitted effect of over 45% in size. The following applies: MV-4-11 AML viability, CellTiter-Glo luminescence, 48 h.
Text: as §1, §2

The nature of assay [4]: BET inhibitor-based combinations targeting novel dependencies in MECOM-rearranged (r) AML: HNT-34 cell line (AID 2202234). Note: potency is the fitted concentration of half-maximal effect; nearly all actives have a fitted effect of over 35% in size. The following applies: HNT-34 AML viability, CellTiter-Glo luminescence, 48 h.
Text: as §1, §2

A short description of assay [5]: BET inhibitor-based combinations targeting novel dependencies in MECOM-rearranged (r) AML: UCSD-AML1 cell line (AID 2202235). Note: potency is the fitted concentration of half-maximal effect; nearly all actives have a fitted effect of over 40% in size. The settings on record: UCSD-AML1 AML cells viability, CellTiter-Glo, 48 h. In outline: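 First, 500 cells per well were seeded; next, drugs were pinned as 11-point doses; then plates sat 48 hr in the incubator; finally CellTiter-Glo was added and luminescence read, with AUC and Z-AUC computed.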

Assay [6] can be described thus: BET inhibitor-based combinations targeting novel dependencies in MECOM-rearranged (r) AML: AML-191 cell line (AID 2202236; note: potency is the fitted concentration of half-maximal effect; nearly all actives have a fitted effect of over 35% in size). The following applies: AML-191 viability, CellTiter-Glo luminescence, 48 h. In outline: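 Each compound was tested at eleven concentrations on cells seeded at 500/well. After two days' incubation, ATP-based luminescence reported viability; responses relative to DMSO and blank wells yielded AUC and cell-line-centred Z-AUC.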

Consider `CCC(=O)N(c1ccccc1)C1(COC)CCN(CCn2nnn(CC)c2=O)CC1`, for which, in assay [1], the activation is inactive: 22%.

On to `CN(CCCl)CCCl`, for which, in assay [1], the activation is inactive: -5.4%. In addition, the Potency is active: 8.33 µM in assay [2]; active: 18.6 µM in assay [3]; active: 18.6 µM in assay [4]; active: 18.6 µM in assay [5]; active: 18.6 µM in assay [6].
